Test results reported in patent US20230103352A1 (ONCOIMMUNE, published 2023).

Molecular target: T1, control Fc
T1 construct: also called control IgG Fc; human IgG1 Fc
Assay: Biacore (SPR): control Fc in place of CD24Fc, Siglec-10Fc as analyte; value printed under the KD line, no curve is drawn for the control
Source text: To measure the interaction between CD24Fc and Siglec 10, we immobilized CD24Fc onto a CHIP and used Biacore to measure the binding of different concentrations of Siglec-10Fc. […] The interaction between CD24Fc and HMGB1 was confirmed by pull down experiments using CD24Fc-bound protein G beads followed by Western blot with either anti-IgG or anti-HMGB1. […] To determine whether CD24Fc is an agonist of Siglec G, the mouse counterpart of human Siglec 10, we stimulated CD24^{-/-} spleen cells with CD24Fc, control Fc or vehicle (PBS) control for 30 minutes. Siglec G was then immunoprecipitated and probed with anti-phospho-tyrosine or anti-SHP-1.

B1: Siglec-10Fc (Fc fusion, human, UniProt Q96LC7 17-546, looked up)
chain: MDGRFWIRVQESVMVPEGLCISVPCSFSYPRQDWTGSTPAYGYWFKAVTETTKGAPVATNHQSREVEMSTRGRFQLTGDPAKGNCSLVIRDAQMQDESQYFFRVERGSYVRYNFMNDGFFLKVTALTQKPDVYIPETLEPGQPVTVICVFNWAFEECPPPSFSWTGAALSSQGTKPTTSHFSVLSFTPRPQDHNTDLTCHVDFSRKGVSAQRTVRLRVAYAPRDLVISISRDNTPALEPQPQGNVPYLEAQKGQFLRLLCAADSQPPATLSWVLQNRVLSSSHPWGPRPLGLELPGVKAGDSGRYTCRAENRLGSQQRALDLSVQYPPENLRVMVSQANRTVLENLGNGTSLPVLEGQSLCLVCVTHSSPPARLSWTQRGQVLSPSQPSDPGVLELPRVQVEHEGEFTCHARHPLGSQHVSLSLSVHYSPKLLGPSCSWEAEGLHCSCSSQASPAPSLRWWLGEELLEGNSSQDSFEVTPSSAGPWANSSLSLHGGLSSGLRLRCEAWNVHGAQSGSILQLPDKKGLIST
notes: It was the analyte in the Biacore assay; not shown: Fc part of Siglec-10Fc
- Kd: 16.2 µM
